Source: US20080280910A1, “PHTHALAZINONE DERIVATIVES” (priority 2007, published 2008)

Sequences of proteins named here, by UniProt entry; tags and fusion partners are left off.
UniProt P09874, whole entry: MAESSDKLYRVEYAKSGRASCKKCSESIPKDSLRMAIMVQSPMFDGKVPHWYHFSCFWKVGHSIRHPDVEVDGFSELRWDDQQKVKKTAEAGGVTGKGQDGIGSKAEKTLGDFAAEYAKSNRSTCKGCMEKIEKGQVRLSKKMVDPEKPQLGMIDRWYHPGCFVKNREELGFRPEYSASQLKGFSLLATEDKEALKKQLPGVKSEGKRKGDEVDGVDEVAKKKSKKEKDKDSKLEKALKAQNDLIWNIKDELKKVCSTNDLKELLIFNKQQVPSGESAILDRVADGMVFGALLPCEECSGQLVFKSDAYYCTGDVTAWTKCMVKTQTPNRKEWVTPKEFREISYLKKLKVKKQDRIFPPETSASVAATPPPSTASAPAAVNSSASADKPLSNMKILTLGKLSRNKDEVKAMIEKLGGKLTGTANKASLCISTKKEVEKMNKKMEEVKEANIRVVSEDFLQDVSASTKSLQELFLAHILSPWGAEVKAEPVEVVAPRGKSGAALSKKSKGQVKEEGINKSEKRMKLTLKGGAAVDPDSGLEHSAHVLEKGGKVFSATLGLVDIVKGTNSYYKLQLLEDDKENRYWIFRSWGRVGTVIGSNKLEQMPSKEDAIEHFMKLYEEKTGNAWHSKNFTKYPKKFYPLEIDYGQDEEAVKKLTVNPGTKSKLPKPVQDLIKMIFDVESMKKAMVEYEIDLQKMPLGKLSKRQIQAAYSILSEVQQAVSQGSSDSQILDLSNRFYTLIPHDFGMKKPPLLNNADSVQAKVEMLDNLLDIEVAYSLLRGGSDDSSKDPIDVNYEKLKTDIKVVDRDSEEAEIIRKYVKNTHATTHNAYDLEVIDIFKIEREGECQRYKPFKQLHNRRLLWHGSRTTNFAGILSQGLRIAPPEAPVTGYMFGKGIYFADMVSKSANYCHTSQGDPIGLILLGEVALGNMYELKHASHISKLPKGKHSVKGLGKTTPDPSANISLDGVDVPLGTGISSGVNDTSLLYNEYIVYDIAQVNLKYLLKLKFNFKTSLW

Molecular target: Mammalian PARP, isolated from Hela cell nuclear extract (Homo sapiens, UniProt P09874)
Experiment: PARP inhibition assay (FlashPlate, 3H-NAD incorporation) to determine IC50
Settings: mean IC50
Experimental: In order to assess the inhibitory action of the compounds, the following assay was used to determine IC50 values (Dillon, et al., JBS., 8(3), 347-352 (2003)).
Mammalian PARP, isolated from Hela cell nuclear extract, was incubated with Z-buffer (25 mM Hepes (Sigma); 12.5 mM MgCl2 (Sigma); 50 mM KCl (Sigma); 1 mM DTT (Sigma); 10% Glycerol (Sigma) 0.001% NP-40 (Sigma); pH 7.4) in 96 well FlashPlates (TRADE MARK) (NEN, UK) and varying concentrations of said inhibitors added. All compounds were diluted in DMSO and gave final assay concentrations of between 10 and 0.01 μM, with the DMSO being at a final concentration of 1% per well. The total assay volume per well was 40 μL.
After 10 minutes incubation at 30° C. the reactions were initiated by the addition of a 10 μl reaction mixture, containing NAD (5 μM), ^3H-NAD and 30mer double stranded DNA-oligos. Designated positive and negative reaction wells were done in combination with compound wells (unknowns) in order to calculate % enzyme activities. The plates were then shaken for 2 minutes and incubated at 30° C. for 45 minutes.
Following the incubation, the reactions were quenched by the addition of 50 μl 30% acetic acid to each well. The plates were then shaken for 1 hour at room temperature.
The plates were transferred to a TopCount NXT (TRADE MARK) (Packard, UK) for scintillation counting. Values recorded are counts per minute (cpm) following a 30 second counting of each well.
The % enzyme activity for each compound is then calculated using the following equation: […]
IC50 values (the concentration at which 50% of the enzyme activity is inhibited) were calculated, which are determined over a range of different concentrations, normally from 10 μM down to 0.001 μM. Such IC50 values are used as comparative values to identify increased compound potencies.

Work on `NCCN1CCN(C(=O)c2ccc(-c3cc(Cc4n[nH]c(=O)c5ccccc45)ccc3F)cc2)C1=O` yielded an IC50 of 904 nM.
`O=C(Cn1cnnn1)Nc1ccc(-c2cc(Cc3n[nH]c(=O)c4ccccc34)ccc2F)cc1` was tested, and the IC50 was 236 nM.
`O=C(Cn1cnnn1)Nc1cccc(-c2cc(Cc3n[nH]c(=O)c4ccccc34)ccc2F)c1` was tested, and the IC50 was 56 nM.
`O=c1[nH]nc(Cc2cccc(-c3cccs3)c2)c2ccccc12` gave an IC50 of 82 nM.
